UUG fidelity – alters start codon recognition fidelity in yeast; AID 602363; activity score, % at 18.7 µM; 350,000 tested, 0.13% active; S. cerevisiae UUG-firefly luciferase reporter, luminescence/redox ratio;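 active means replicate mean at a twofold rise or more, about +100% in these data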;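 further: firefly luciferase made from a UUG start codon reports start codon fidelity; reporter light over untreated wells divided by growth signal over untreated wells; some hits fall short of that in this replicate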
MC4R ag barr – human MC4R agonism via beta-arrestin. P32245. U2OS MC4R beta-arrestin complementation, luminescence; percent of melanotan II response, DMSO zero. activation, % at 8.9 µM. actives 0.98% (n = 360,000);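 active = activation above a per-plate cutoff, the mean activation of sample wells on that plate plus 3 SD, cut at about 8% in these data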
MC4R antag cAMP – antagonists of human melanocortin 4 receptor (MC4R); P32245; MC4R-expressing cells, MTII-stimulated cAMP, LANCE TR-FRET; inhibition, % at 6.5 µM; actives 0.48% (n = 360,000); AID 540295;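 active = inhibition above its plate's cutoff, the mean of tested wells on that plate plus 3 SD, cut at about 29% in these data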;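 also: 0% = Melanotan II alone and 100% = Melanotan II plus saturating MCL0020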
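Assay system: U2OS-MC4R stable cell line; Also added: Melanotan II; Technique: Eu-cAMP/anti-cAMP TR-FRET, emission 671 nm; Times: 30-min compound, 1-h challenge, 1-h detection, room temperature.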
ALR inh – blocks human ALR sulfhydryl oxidase activity | inhibition, % (test concentration not listed) | 3.8% of 290,000 active | AID 485317 | purified ALR, DTT oxidation, H2O2 HRP-luminol luminescence | P55789;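 active means mean and each replicate at 75% or more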;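 further: stock transfer was 7.5 nL into about 7.5 µL; 0% = neutral wells and 100% = wells with inactivated enzyme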
HDAC3 inh – inhibitors of human histone deacetylase 3. O15379. recombinant HDAC3, fluorogenic peptide/trypsin coupled, fluorescence. AID 2718. inhibition, % at 8.3 µM. actives 0.15% (n = 320,000); in the data active = inhibition above about 26%, passing the limit was not always enough
NALP1 yeast inh – inhibitors of NALP1 inflammasome in yeast; S. cerevisiae NALP1/ASC/caspase-1 growth, X-gal OD620, 72 h; inhibition, % at 10 µM; actives 0.61% (n = 280,000); in the data active = inhibition mostly above about 24%, no sharp cut-off; inactive = mostly below about 32%
Starred values were filed as active, the others as inactive. Compounds with a hit are over-represented: about 4.2% of the library has one in this group of screens.

For O=C(C[C@@H]1C[C@@H]2c3cc(NS(=O)(=O)c4ccccc4)ccc3O[C@@H]2[C@H](CO)O1)NC1CCCC1 the results were UUG fidelity 2.0.
`C[C@@H]1CCCCO[C@H](CN(C)S(=O)(=O)c2ccccc2)[C@H](C)CN([C@@H](C)CO)C(=O)c2cc(NC(=O)Nc3ccc(C(F)(F)F)cc3)ccc2O1` gave UUG fidelity 5.2.
For C/C=C/c1cnc2c(c1)C(=O)N([C@H](C)CO)C[C@H](C)[C@H](CN(C)C(=O)NC1CCCC1)O2 the results were UUG fidelity 3.2.
Screening Cc1cc(C)nc(Sc2c(C)nn(-c3ccccc3)c2C)n1 returned UUG fidelity -10.8, MC4R ag barr -0.4, MC4R antag cAMP 5.9, ALR inh 79.7*, HDAC3 inh -5.4 and NALP1 yeast inh 0.7.
`C[C@@H]1CN([C@H](C)CO)C(=O)c2cc(-c3ccccc3)cnc2O[C@@H]1CN(C)C(=O)Nc1ccccc1F` gave UUG fidelity -3.1.
`O=c1[nH]nc(Cc2ccc(-c3ccccc3Cl)o2)c2ccccc12` gave UUG fidelity -13.7, MC4R ag barr 8.9*, MC4R antag cAMP -2.1, ALR inh -11.0, HDAC3 inh -0.7 and NALP1 yeast inh 31.9.
O=c1[nH]nc(Cc2ccc(Cl)cc2)c2ccccc12 was read as UUG fidelity -11.3, MC4R ag barr -0.8, MC4R antag cAMP -0.7, ALR inh 2.2, HDAC3 inh 6.8 and NALP1 yeast inh -33.7.
Screening CCC(=O)N(C)C[C@@H]1Oc2cc(-c3ccccc3)ccc2S(=O)(=O)N([C@H](C)CO)C[C@H]1C returned UUG fidelity 21.1.
`Cn1c(/C=C/c2ccc(Br)cc2)nc2ccccc2c1=O` gave UUG fidelity -8.2, MC4R ag barr 9.0*, MC4R antag cAMP 25.6, ALR inh 7.3 and NALP1 yeast inh 19.8.
For CN(C)c1ccc(/C=C/c2nc3ccccc3c(=O)n2-c2ccc(C(=O)O)cc2)cc1 the results were UUG fidelity -6.6, MC4R ag barr -0.3, MC4R antag cAMP 14.9, ALR inh 99.0*, HDAC3 inh 12.3 and NALP1 yeast inh 8.9.
Screening O=C(O)c1cccc(-n2c(/C=C/c3ccccc3)nc3ccccc3c2=O)c1 returned UUG fidelity -17.1, MC4R ag barr -0.2, MC4R antag cAMP 11.8, ALR inh 78.2*, HDAC3 inh 11.2 and NALP1 yeast inh 13.3.
`C[C@@H](O)C#Cc1ccc2c(c1)O[C@H](CN(C)C(=O)C1CCCCC1)[C@@H](C)CN([C@@H](C)CO)S2(=O)=O` gave UUG fidelity -0.5.
C[C@@H]1CN([C@H](C)CO)C(=O)c2cc(NC(=O)Nc3ccc4c(c3)OCO4)ccc2O[C@@H](C)CCCCO[C@@H]1CN(C)Cc1ccc(C(=O)O)cc1 was read as UUG fidelity 11.7.
For N/C(=N\O)c1ccc(Oc2ccccc2Cl)c([N+](=O)[O-])c1 the results were MC4R ag barr -1.1, MC4R antag cAMP -3.9, ALR inh 98.1* and HDAC3 inh -1.4.
Screening COc1ccccc1Nc1nc(N)nc(CCl)n1 returned UUG fidelity -5.0, MC4R ag barr 5.2, MC4R antag cAMP 15.1, HDAC3 inh 14.2 and NALP1 yeast inh -4.1.
`COc1ccc(OC)c(Nc2nc(N)nc(CCl)n2)c1` gave UUG fidelity -19.3, MC4R ag barr 9.2*, MC4R antag cAMP 10.1, ALR inh 12.5 and HDAC3 inh 0.9.
For Cc1ccc(Nc2nc(N)nc(CCl)n2)c(C)c1 the results were MC4R ag barr 15.2*, MC4R antag cAMP 10.7, ALR inh 13.7, HDAC3 inh -1.3 and NALP1 yeast inh 0.6.
For Cc1ccc(Nc2nc(N)nc(CN3CCCCCC3)n2)c(C)c1 the results were UUG fidelity -24.4, MC4R ag barr -0.4, MC4R antag cAMP 6.2, ALR inh -6.4, HDAC3 inh 1.4 and NALP1 yeast inh 8.4.
For CO[C@@H]1CN(C)C(=O)c2cc(NC(=O)C3CCCC3)ccc2OC[C@@H](C)N(CCC(F)(F)F)C[C@H]1C the results were UUG fidelity 9.4.
`C[C@@H]1CCCCO[C@H](CN(C)S(=O)(=O)c2ccccc2)[C@H](C)CN([C@@H](C)CO)C(=O)c2cc(NC(=O)CCC(F)(F)F)ccc2O1` gave UUG fidelity 11.5.
For Cc1ccc(N(CC(=O)Nc2cc(Cl)ccc2Oc2ccccc2)S(C)(=O)=O)cc1C the results were UUG fidelity -8.1, MC4R ag barr 1.7, MC4R antag cAMP 19.8, ALR inh -1.0, HDAC3 inh 26.7* and NALP1 yeast inh -0.8.
Screening Cc1ccc(N(CC(=O)Nc2cc(Cl)ccc2Oc2ccccc2)S(C)(=O)=O)c(C)c1 returned UUG fidelity -40.4, MC4R ag barr 0.5, MC4R antag cAMP 4.1, HDAC3 inh 17.1 and NALP1 yeast inh -7.0.
Screening O=C(O)c1ccc(-c2nc(-c3ccccc3)cs2)cc1 returned MC4R ag barr -1.2, MC4R antag cAMP 8.0, ALR inh 95.5*, HDAC3 inh -0.7 and NALP1 yeast inh 0.6.
`CNC(=O)c1ccc(-c2nc(-c3ccccc3)cs2)cc1` gave MC4R ag barr -2.6, MC4R antag cAMP -1.6, ALR inh -2.7, HDAC3 inh -2.3 and NALP1 yeast inh -5.4.
`O=C(O)c1ccccc1C(=O)Nc1ccc(-c2csc(-c3ccccc3)n2)cc1` gave MC4R ag barr -1.1, MC4R antag cAMP 19.5, ALR inh 98.6*, HDAC3 inh 1.8 and NALP1 yeast inh 36.7.
For O=C(O)c1ccc(-c2nc(-c3ccc(Cl)c(Cl)c3)cs2)cc1 the results were MC4R ag barr -2.1, MC4R antag cAMP 31.2*, ALR inh 1.9, HDAC3 inh 1.3 and NALP1 yeast inh 0.9.
CCCNC(=O)N1C[C@H]2[C@@H](c3ccccc31)[C@H](CO)N2Cc1ccc(OC)cc1 was read as UUG fidelity 0.6.
For CC(C)CC#Cc1cnc2c(c1)C(=O)N([C@@H](C)CO)C[C@H](C)[C@@H](CN(C)C(=O)c1cnccn1)O2 the results were UUG fidelity 5.0.
`C[C@H](CO)N1C[C@H](C)[C@H](CN(C)C(=O)C2CC2)Oc2cc(-c3ccccc3)ccc2S1(=O)=O` gave UUG fidelity -7.9.
`Cc1ccc(S(=O)(=O)N(C)C[C@H]2OCCCC[C@@H](C)Oc3ccc(NC(=O)Nc4ccccc4)cc3C(=O)N([C@@H](C)CO)C[C@H]2C)cc1` gave UUG fidelity -14.4.
For C[C@H](CO)N1C[C@H](C)[C@H](CN(C)Cc2ccccn2)Oc2ncc(C3=CCCCC3)cc2C1=O the results were UUG fidelity -0.5.
For CC(=O)N(C)C[C@H]1Oc2cc(-c3ccncc3)ccc2S(=O)(=O)N([C@H](C)CO)C[C@H]1C the results were UUG fidelity -8.9.

Reprinted at random: 3 entries already listed.
For C/C=C/c1cnc2c(c1)C(=O)N([C@H](C)CO)C[C@H](C)[C@H](CN(C)C(=O)NC1CCCC1)O2 the results were UUG fidelity 3.2.
`C[C@@H]1CCCCO[C@H](CN(C)S(=O)(=O)c2ccccc2)[C@H](C)CN([C@@H](C)CO)C(=O)c2cc(NC(=O)Nc3ccc(C(F)(F)F)cc3)ccc2O1` gave UUG fidelity 5.2.
For C[C@H](CO)N1C[C@H](C)[C@H](CN(C)Cc2ccccn2)Oc2ncc(C3=CCCCC3)cc2C1=O the results were UUG fidelity -0.5.
